Measurements taken from patent US9024071B2, “Therapeutic compounds” (University of Florida Research Foundation, Inc., priority 2009, dated 2015).

The chains behind the UniProt entries cited, without tags or fusion partners. Residues count along the entry.
UniProt P28335, 33-458: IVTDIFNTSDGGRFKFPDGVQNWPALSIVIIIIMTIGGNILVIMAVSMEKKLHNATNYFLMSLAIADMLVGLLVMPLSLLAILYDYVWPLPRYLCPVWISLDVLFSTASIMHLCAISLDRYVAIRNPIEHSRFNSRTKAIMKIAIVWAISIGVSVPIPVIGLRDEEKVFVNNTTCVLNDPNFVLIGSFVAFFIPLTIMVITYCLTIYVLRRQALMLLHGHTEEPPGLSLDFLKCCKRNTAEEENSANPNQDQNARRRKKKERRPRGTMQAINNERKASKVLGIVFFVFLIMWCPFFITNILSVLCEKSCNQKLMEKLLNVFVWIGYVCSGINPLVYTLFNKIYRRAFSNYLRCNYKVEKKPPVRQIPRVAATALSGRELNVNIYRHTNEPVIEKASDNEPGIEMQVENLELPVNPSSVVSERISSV

Molecular target: 5HT2C (Homo sapiens, UniProt P28335)
Experiment: Radioreceptor competition/saturation binding, 5HT2C ([3H]-mesulergine)
Conditions: radioligand saturation binding, membranes from transfected CHO cells
Method: Cells are grown at 37° C. in a humidified incubator with 5% CO2. The cDNAs encoding the human 5-HT2A, 5-HT2B, and 5-HT2C receptors (wild type) are purchased from UMR (Rolla, Mo.) for transient transfection of the clonal cells. For radioreceptor binding assays, 5-HT2A, 5-HT2B, and 5-HT2C receptor membranes are prepared from transfected CHO-K1 cells. For functional assays measuring activity of PLC/IP formation, transfected CHO-K1 cells are used for 5-HT2A and 5-HT2C receptors. […] Twenty-four hours before transfection, cells are seeded at 40% confluence in 100 mm dishes for radioreceptor binding assays or at 10^5 cells per well in 12-well plates for functional assays. […]
Radioreceptor saturation and competition binding assays are performed using membrane homogenates, similar to our methods reported previously for the phylogenetically closely related histamine H1 GPCR (Booth, 2002; Moniri et al., 2004). […] Protein concentration is determined by the method of Lowry et al. (Lowry, 1951). […] The membrane-bound [^3H]-radioligand retained on the filter discs is quantified by liquid scintillation spectrometry. Data are analyzed by nonlinear regression using the sigmoidal curve-fitting algorithms in Prism 4.03 (GraphPad Software Inc., San Diego, Calif.). […]

`CN1CC(NS(=O)(=O)N(C)C)C[C@@H]2c3cccc4c3c(cn4C)C[C@H]21` (stereo partly shown) [[^3H]-mesulergine, [N^6-methyl-^3H]-mesulergine, reference compound] showed a Kd of 0.88 ± 0.03 nM.
